Measured values: patent US6747057B2 (priority 2001, dated 2004)

Tested on: GSK-3
Assay: Inhibition of GSK-3 (32P incorporation into GS 1 peptide)
Type: biochemical
Details: read-out: IC50 GSK-3 inhibition; 37° C., 20 minutes, GS 1 peptide 15 μM, ATP 15 μM

Row | Compound | IC50
1 | O=C(c1ccc(Cl)cc1)C(Cl)Br (stereo not shown) | 7.5 µM
2 | 2-Chloro-1-(5-cbloro-thioiphen-2-yl)-ethanone | 10 µM
3 | O=C(c1ccccc1)C(Br)Br | 2.5 µM
4 | O=C(c1ccc(Br)cc1)C(Br)Br | 0.75 µM
